Test results as given in publication PMC4498294, “Tetrahydroisoquinolines affect the whole-cell phenotype of Mycobacterium tuberculosis by inhibiting the ATP-dependent MurE ligase” (Journal of Antimicrobial Chemotherapy, 2015).

System: MDCK cells carrying the MDR-1 gene
Assay: MDCK cell permeability assay
Assay type: in vitro ADME, canine
Settings: MDCK MDR-1 monolayer, 10 μM, 30 min

## Labetolol [reference compound]
Apical to basolateral
  Papp A-B: 1.2 cm/sec, x10-6
Basolateral to apical
  Papp B-A: 18.1 cm/sec, x10-6
